From ChEMBL document CHEMBL3745712, “Identification of N-(4-((1R,3S,5S)-3-Amino-5-methylcyclohexyl)pyridin-3-yl)-6-(2,6-difluorophenyl)-5-fluoropicolinamide (PIM447), a Potent and Selective Proviral Insertion Site of Moloney Murine Leukemia (PIM) 1, 2, and 3 Kinase Inhibitor in Clinical Trials for Hematological Malignancies” (J Med Chem, 2015)

Molecular target: Serine/threonine-protein kinase pim-3 (Homo sapiens, UniProt Q86V86)

Ki: 0.014 µM
Compound: Nc1ccc(C2CCCCC2)nc1C(=O)Nc1cnccc1[C@@H]1CCC[C@H](N)C1
